GIV Gai3 FP – GIV-Galpha-i interaction inhibition. AID 1224905. actives 0.42% (n = 210,000). percent of control (FP), % (test concentration not listed). Galpha-i3/FITC-GIV peptide fluorescence polarization, 90 min; stronger effect = lower value; scaled: aluminum fluoride 0%, vehicle 100%;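 active = replicate mean at 85% of control or lower, very high polarization wells dropped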;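 also: wells of about 15 µL received 100 nL stock; the first replicate is given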
HCMV UL50-53 inh – inhibitors of HCMV UL50-UL53 interaction, biochemical, HTRF. normalized percent inhibition. inhibition, % (concentration not given with the values). 190,000 tested, 0.15% active; in the data active = inhibition above about 27%, passing the limit was not always enough
GIV-Gai FP conf – inhibitors of GIV peptide binding to Galpha-i3, confirmation, biochemical, fluorescence polarization, FITC-GIV peptide, rat Galphai3; shares compounds with GIV Gai3 FP; active compounds read low; fluorescence polarization, mP at 100 µM; 580 tested, 38% active;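 active = inhibition score of 15 or more, meaning 100 minus mean polarization as percent of control over three replicates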;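 note: lower mP means peptide displaced from Galphai3 so more inhibition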
GIV Gai AS conf – inhibitors of GIV binding to Galpha-i3, confirmation, orthogonal assay for GIV-Galpha-i inhibitor project, biochemical, AlphaScreen, His-GIV, GST-Galphai3; shares compounds with GIV Gai3 FP; purified proteins, 90 min; active compounds read low; AlphaScreen counts at 100 µM; 580 tested, 39% active; AID 1259351, 2017;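 active = inhibition score at or above a set limit, where the score is 100 minus the three-replicate mean percent of control signal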
Starred values were filed as active, the others as inactive; . = not tested or not shown. Compounds with a hit are over-represented: about 0.46% of the library has one in this group of screens.

cpd | molecule | GIV Gai3 FP | HCMV UL50-53 inh
1 | O=C(NC1(O)C(=O)c2ccccc2C1=O)c1ccccn1 | 74* | 36
2 | COc1ccc(CSC(=N)N)cc1Br | 96 | -11
3 | OCc1cn(-c2ccccc2)nc1-c1cccs1 | . | -27
4 | O=C(COc1ccccc1C(=O)NCc1ccccc1)Nc1cccc2nsnc12 | . | -50
5 | CN1CCN(c2nc(C#N)c(C#N)nc2C(C#N)=C2Nc3ccccc3N2)CC1 | 100 | -24
6 | CCN1/C(=C(\C#N)c2nc(C#N)c(C#N)nc2N2CCOCC2)Nc2ccccc21 | 67* | -7

cpd | GIV-Gai FP conf | GIV Gai AS conf
1 | 68 | 36588
2 | . | .
3 | . | .
4 | . | .
5 | . | .
6 | 75 | 32831

Reprinted at random: 2 records from the list
cpd | molecule | GIV Gai3 FP | HCMV UL50-53 inh
4 | O=C(COc1ccccc1C(=O)NCc1ccccc1)Nc1cccc2nsnc12 | . | -50
3 | OCc1cn(-c2ccccc2)nc1-c1cccs1 | . | -27

cpd | GIV-Gai FP conf | GIV Gai AS conf
4 | . | .
3 | . | .
